{"source": "patent US20250228938A1", "about": "“THE COMBINATION OF MACROPHAGE-DIRECTED IMMUNOTHERAPY AND TARGETED AGENTS FOR TREATMENT OF CANCER” (Whitehead Institute for Biomedical Research, priority 2022, published 2025)", "system": "GFP+ MGH134-1 cells", "test": "Long-term co-culture assay with primary human macrophages, GFP+ MGH134-1 cells", "format": "cell-based", "details": "TKI 1 uM, single agent or with anti-CD47 10 ug/mL", "experimental": "Long-term co-culture of primary human macrophages was performed using GFP+ target cells. Cells were cultured in IMDM supplemented with 10% ultra-low IgG fetal bovine serum, 100 units/mL penicillin, 100 ug/mL streptomycin, and 292 ug/mL L-glutamine and 20 ng/mL human M-CSF. Purified anti-CD47 antibody clone B6H12 was added at a working concentration of 10 ug/mL. Targeted therapies were added at a final working concentration of 1.0 uM except as otherwise indicated. Cells were then co-cultured for 7-14 days with whole-well imaging of phase contrast and GFP channels performed every 4 hours using an Incucyte S3 system. Automated imaging analysis was performed using Incucyte Analysis Software. Images taken on day 6.5 was used as a standard reference time point for data comparison and statistical analysis. For dose-response experiments, sigmoidal dose-response curves were generated using Prism version 9.2.0 (GraphPad) to determine IC50 parameters.\nLong-term co-culture assays were performed by measuring GFP+ area. Data was analyzed by comparing mean GFP+ area between relevant conditions using one-way ANOVA with Holm-Sidak multiple comparison test. Experiments were performed in two independent trials using a minimum of 6-8 donors except as otherwise indicated. IC50 values were calculated by fitting data to sigmoidal dose-response curve using Prism version 9.2.0 (Graphpad)."}
{"smiles": "COc1cc2ncnc(Nc3ccc(F)c(Cl)c3)c2cc1OCCCN1CCOCC1", "note": "[gefitinib]", "values": [{"measurement": "growth of GFP+ MGH134-1 cells (EGFR T790M)", "result": "neither erlotinib or gefitinib inhibited cell growth as single agents nor in concert with CD47 blockade"}]}
